How the values were obtained:
Assay in all cases: holdup assay
Format in all cases: binding, human
PDZD4 PDZ1 = conditions: PDZ about 4 μM; two independent experiments
SNTA1 PDZ1 = conditions: PDZ about 4 μM; two independent experiments
APBA1 PDZ2 = conditions: PDZ about 4 μM; sd not given
PTPN13 PDZ4 = conditions: PDZ about 4 μM; two independent experiments
MPDZ PDZ6 = conditions: PDZ about 4 μM; two independent experiments
GRIP2 PDZ5 = conditions: PDZ about 4 μM; two independent experiments
DLG3 PDZ1 = conditions: PDZ about 4 μM; two independent experiments
GRIP1 PDZ3 = conditions: PDZ about 4 μM; sd not given
IL16 PDZ1 = conditions: PDZ about 4 μM; two independent experiments
DLG1 PDZ1 = conditions: PDZ about 4 μM; two independent experiments
MAGI1 PDZ5 = conditions: PDZ about 4 μM; sd not given
InaDl PDZ6 = conditions: PDZ about 4 μM; two independent experiments
PARD3 PDZ2 = conditions: PDZ about 4 μM; two independent experiments
PDZD2 PDZ3 = conditions: PDZ about 4 μM; two independent experiments
PDZD2 PDZ2 = conditions: PDZ about 4 μM; two independent experiments
NHERF1 PDZ1 = test system: NHERF1 PDZ1
RAPGEF2 PDZ1 = conditions: PDZ about 4 μM; sd not given
LRRC7 PDZ1 = conditions: PDZ about 4 μM; two independent experiments
InaDl PDZ10 = conditions: PDZ about 4 μM; two independent experiments
MAGI2 PDZ3 = conditions: PDZ about 4 μM; two independent experiments
NHERF3 PDZ4 = conditions: PDZ about 4 μM; two independent experiments
MAGI3 PDZ6 = conditions: PDZ about 4 μM; two independent experiments
DLG2 PDZ3 = conditions: PDZ about 4 μM; two independent experiments
GORASP1 PDZ1 = conditions: PDZ about 4 μM; two independent experiments
PICK1 PDZ1 = conditions: PDZ about 4 μM; sd not given
PDZD2 PDZ6 = conditions: PDZ about 4 μM; two independent experiments
MPDZ PDZ1 2 = conditions: PDZ about 4 μM; two independent experiments
ARHGAP23 PDZ1 = conditions: PDZ about 4 μM; two independent experiments
NHERF PDZ2 = conditions: PDZ about 4 μM; two independent experiments
MPP6 PDZ1 = conditions: PDZ about 4 μM; two independent experiments
PARD3B PDZ2 = conditions: PDZ about 4 μM; two independent experiments
MAGI1 PDZ1 = conditions: PDZ about 4 μM; two independent experiments
TJP3 PDZ2 = conditions: PDZ about 4 μM; two independent experiments
GRIP1 PDZ6 = conditions: PDZ about 4 μM; two independent experiments
IL16 PDZ4 = conditions: PDZ about 4 μM; two independent experiments
SCRIB PDZ1 = conditions: PDZ about 4 μM; sd not given
FRMPD1 PDZ1 = conditions: PDZ about 4 μM; two independent experiments
GRIP2 PDZ3 = conditions: PDZ about 4 μM; two independent experiments
SIPA1L1 PDZ1 = conditions: PDZ about 4 μM; two independent experiments
LAP2 PDZ1 = conditions: PDZ about 4 μM; two independent experiments
PDZD8 PDZ1 = conditions: PDZ about 4 μM; two independent experiments
LIN7B PDZ1 = conditions: PDZ about 4 μM; two independent experiments
SNTB2 PDZ1 = conditions: PDZ about 4 μM; two independent experiments
LNX2 PDZ1 = conditions: PDZ about 4 μM; two independent experiments
HTRA3 PDZ1 = conditions: PDZ about 4 μM; two independent experiments
PREX1 PDZ1 = conditions: PDZ about 4 μM; two independent experiments
DEPTOR PDZ1 = conditions: PDZ about 4 μM; sd not given
GORASP2 PDZ1 = conditions: PDZ about 4 μM; two independent experiments
MAST4 PDZ1 = conditions: PDZ about 4 μM; two independent experiments
PSMD9 PDZ1 = conditions: PDZ about 4 μM; two independent experiments
MAGI1 PDZ6 = conditions: PDZ about 4 μM; sd not given

Biotin-(PEG3)-GFQNTDDVQTSF [ACE2 PBM peptide]
BI (binding intensity) (PDZD4 PDZ1): -0.05 | BI (binding intensity) (SNTA1 PDZ1): -0.03 | BI (binding intensity) (APBA1 PDZ2): -0.04 | BI (binding intensity) (PTPN13 PDZ4): 0.02 | BI (binding intensity) (MPDZ PDZ6): -0.03 | BI (binding intensity) (GRIP2 PDZ5): 0.00 | BI (binding intensity) (DLG3 PDZ1): -0.04 | BI (binding intensity) (GRIP1 PDZ3): -0.01 | BI (binding intensity) (IL16 PDZ1): -0.06 | BI (binding intensity) (DLG1 PDZ1): -0.14 | BI (binding intensity) (MAGI1 PDZ5): 0.16 | BI (binding intensity) (InaDl PDZ6): -0.03 | BI (binding intensity) (PARD3 PDZ2): -0.02 | BI (binding intensity) (PDZD2 PDZ3): -0.03 | BI (binding intensity) (PDZD2 PDZ2): -0.03 | BI (binding intensity) (NHERF1 PDZ1; PDZ about 4 μM, two independent experiments): 0.39 | Kd (NHERF1 PDZ1; converted from BI, PDZ typically 4 μM, immobilized peptide 21 μM, listed as PBM peptide from ACE2 protein, read-out: Kd estimated): 31.1 µM | BI (binding intensity) (RAPGEF2 PDZ1): -0.06 | BI (binding intensity) (LRRC7 PDZ1): -0.06 | BI (binding intensity) (InaDl PDZ10): -0.09 | BI (binding intensity) (MAGI2 PDZ3): -0.06 | BI (binding intensity) (NHERF3 PDZ4): -0.06 | BI (binding intensity) (MAGI3 PDZ6): -0.03 | BI (binding intensity) (DLG2 PDZ3): -0.04 | BI (binding intensity) (GORASP1 PDZ1): -0.06 | BI (binding intensity) (PICK1 PDZ1): -0.03 | BI (binding intensity) (PDZD2 PDZ6): -0.03 | BI (binding intensity) (MPDZ PDZ1 2): -0.05 | BI (binding intensity) (ARHGAP23 PDZ1): 0.03 | BI (binding intensity) (NHERF PDZ2): 0.11 | BI (binding intensity) (MPP6 PDZ1): -0.05 | BI (binding intensity) (PARD3B PDZ2): -0.07 | BI (binding intensity) (MAGI1 PDZ1): -0.03 | BI (binding intensity) (TJP3 PDZ2): -0.08 | BI (binding intensity) (GRIP1 PDZ6): -0.27 | BI (binding intensity) (IL16 PDZ4): -0.09 | BI (binding intensity) (SCRIB PDZ1): 0.02 | BI (binding intensity) (FRMPD1 PDZ1): -0.03 | BI (binding intensity) (GRIP2 PDZ3): -0.04 | BI (binding intensity) (SIPA1L1 PDZ1): 0.00 | BI (binding intensity) (LAP2 PDZ1): -0.02 | BI (binding intensity) (PDZD8 PDZ1): -0.04 | BI (binding intensity) (LIN7B PDZ1): -0.01 | BI (binding intensity) (SNTB2 PDZ1): -0.08 | BI (binding intensity) (LNX2 PDZ1): -0.07 | BI (binding intensity) (HTRA3 PDZ1): -0.06 | BI (binding intensity) (PREX1 PDZ1): -0.10 | BI (binding intensity) (DEPTOR PDZ1): -0.01 | BI (binding intensity) (GORASP2 PDZ1): -0.03 | BI (binding intensity) (MAST4 PDZ1): 0.00 | BI (binding intensity) (PSMD9 PDZ1): 0.02 | BI (binding intensity) (MAGI1 PDZ6): 0.04
